# Test results as given in patent US4022791A (priority 1975, dated 1977).
# Tested on: Rats
# Settings: 32 mg./kg. IP
smiles,measurement,setting,value
COc1ccc(Cl)c2c1CCC(CN1CCC3(CC1)C(=O)N(C)CN3c1ccccc1)=C2,Rat Jump .5 hr (current at which the animal first jumps),0.5 hour after administration,1.2 milliamperes
same,Rat Jump 2 hr (current at which the animal first jumps),2.0 hours after administration,1.2 milliamperes
